Tests used:
[1] = BZ metabolites in plasma of salmon euthanized with BZ overdose; format: in vivo, Atlantic salmon; conditions: salmon euthanized with 200 mg/L BZ
[2] = tested on: ASG-10; experiment: BZ metabolism in ASG-10 (LC-HRMS/MS); format: in vitro ADME, Atlantic salmon (Salmo salar); conditions: 303 µM BZ, 24 h, 45,000 or 90,000 cells/well, LC-HRMS peak areas

Substance: Benzocaine hydroxylamine glucuronide [BZ(O)GlcA]
- BZ metabolites in salmon plasma [1]: presence
- BZ metabolites produced in ASG-10 cells [2]: presence
- BZ metabolites produced in ASG-10 cells ([2]; listed as BZ(O)GLcA): dependency on cell density

— PMC10303838, “Atlantic Salmon Gill Epithelial Cell Line (ASG-10) as a Suitable Model for Xenobiotic Biotransformation” (Metabolites, 2023)
